The values below are quoted from earlier work in patent publication US10912759B2 (priority 2018, dated 2021).

Where only a bound is given, the exact number is not on record here.

For this data set the following is noted: aqueous vehicles; cited from earlier work.

As to “vitamin E d-alpha-tocopherol polyethylene glycol 1000 succinate [TPGS]”, the “concentration at which stable micelles form” value is recorded as ≥ 0.02 wt %.
